Values quoted from earlier work, collected in US12226503B2, “Prebiotic skin care compositions containing carboxylic acids” (priority 2019, dated 2025).

Conditions: toxic or irritant for humans or on skin

For `O=C(O)CCC(=O)C(=O)O` [α-Keto-glutaric acid], the Toxicity is given as “+”.
